## Measured affinities in a library of Ab-14 heavy chain variants

From the AlphaSeq antibody data of Li et al. 2023 (doi:10.1038/s41467-023-39022-2), copy in the FLAb collection.

Target peptide (SARS-CoV-2 spike, HR2 region): PDVDLGDISGINAS

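Phage display of a naive human antibody library on the peptide gave the parent. The variants were designed computationally from a first round of random CDR variants and then made and measured. Group labels follow the data file (Ctrl: baseline library sampled from a position-specific scoring matrix, with some repeated check sequences; Rand: our label for a block that the file lists under HC and that is probably the random mutants of the ten best first-round binders; En: ensemble of fine-tuned language models; HC: hill climbing; Gen: genetic algorithm; Gibbs: Gibbs sampling; a sequence that several methods proposed may carry one label only). In AlphaSeq, yeast of one mating type display the scFv and yeast of the other type display the target. After mating in shaken culture at 30 °C for 16 h, diploids were selected and their barcode pairs sequenced. Each replicate has its own calibration line, from reference interactions of the BCL2 family. Each pool was mated in six replicate cultures.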

Parent scFv Ab-14: VH joined to VL by three GGGGS repeats. Changes lie in the heavy chain CDRs alone.
VH: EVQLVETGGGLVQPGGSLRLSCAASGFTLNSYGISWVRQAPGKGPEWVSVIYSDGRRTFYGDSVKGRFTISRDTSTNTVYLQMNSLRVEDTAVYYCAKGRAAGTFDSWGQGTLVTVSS
VL: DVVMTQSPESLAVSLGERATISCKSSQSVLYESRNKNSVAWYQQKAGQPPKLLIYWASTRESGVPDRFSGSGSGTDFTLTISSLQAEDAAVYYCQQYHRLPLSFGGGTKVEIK

Each variant is given by its three heavy chain CDRs, as the data file delimits them; those of the parent are GFTLNSYGIS, VIYSDGRRTFYGDSVK, GRAAGTFDS. Variants here have more than six changes. The read-out is the apparent dissociation constant on a log10 scale (nM): the lower, the stronger. The mean shown is taken over the replicates in which the pair was detected. "ND" means that the variant was in the library but no mating with the target was seen in that replicate; the authors take this as a sign of poor binding, and no number exists. The list is sorted by this average, lowest first, undetected variants last. Of ten entries with the parent sequence, four were seen in most replicates (averages 0.34 to 2.37), three in one and three in none, so single entries are noisy. Empty control strains, which show no peptide, gave a signal in 1% of pairings with all heavy chain designs; the median was 2.08 and 95% of these signals were weaker than 0.84. No background was subtracted. Values of this round are not directly comparable with the first-round values of the same sequences. In the paper, a design with two or fewer of six values counts as a poor binder.

* GFDLDEYGIS / VIYADGVRTAYADDVK / GNVAGTFDL [En_Gen] -> -0.40, -0.61, -0.57, -0.69, -0.64, -0.73 (mean -0.61)
* GFDLNEYGIS / VIYADGVRTAYADSVK / GETAGTFDM [En_Gen] -> -0.49, -0.60, -0.75, -0.31, -0.65, -0.70 (mean -0.58)
* GFDLNEYGIS / VIYADGMRTAYVDDVK / GEVAGTFDV [En_Gen] -> -0.29, -0.69, -0.58, -0.68, -0.57, -0.29 (mean -0.52)
* GFDLDEYGIS / VIYADGKRTAYADDVK / GEVAGTFDQ [En_Gen] -> -0.41, -0.45, -0.46, -0.44, -0.68, -0.60 (mean -0.51)
* GFDLNEYGIS / VIYADGRRTFYADNVK / GQNAGTFDV [En_HC] -> -0.28, -0.75, -0.54, -0.71, -0.22, -0.46 (mean -0.49)
* GFDLNEYGIS / VIYADGKRTYYADSVK / GNVAGTFDM [En_Gen] -> -0.39, -0.38, -0.50, -0.59, -0.60, -0.46 (mean -0.49)
* GFDLNEYGIS / VIYADGMRTAYIDSVK / GHAAGTFDV [En_HC] -> -0.12, -0.44, -0.46, -0.56, -0.51, -0.30 (mean -0.40)
* GFDLNEYGIS / VIYADGRRTFYQDSVK / GETAGTFDQ [En_HC] -> ND, -0.39, -0.17, -0.70, -0.61, -0.03 (mean -0.38)
* GFDLNEYGIS / VIYADGVRTFYADSVK / GNNAGTFDV [En_Gen] -> -0.13, -0.18, -0.27, -0.62, -0.30, -0.17 (mean -0.28)
* GFNLNEYGIS / VIYADGMRTFYTDSVK / GETAGTFDE [En_HC] -> -0.15, 0.04, -0.42, -0.55, -0.51, -0.06 (mean -0.27)
* GFDLNEYGIS / VIYADGRRTAYADDVK / GEVAGTFDL [En_Gen] -> -0.02, -0.43, -0.44, -0.44, -0.32, 0.15 (mean -0.25)
* GFDLNEYGIS / VIYADGMRTAYADSVK / GNEAGTFDV [En_Gen] -> -0.01, 0.12, -0.32, -0.32, -0.21, -0.56 (mean -0.21)
* GFDLNEYGIS / VIYADGKRTAYADSVK / GKVAGTFDS [En_HC] -> 0.06, -0.31, 0.07, -0.34, -0.49, 0.52 (mean -0.08)
* GFDLNEYGIS / VIYADGKRTSYADSVK / GEAAGTFDV [En_HC] -> 0.28, -0.01, -0.41, -0.28, 0.48, 0.21 (mean 0.05)
* GFDLDEYGIS / VIYADGMRTAYTDSVK / GENAGTFDL [En_Gen] -> 0.16, 0.27, -0.41, -0.02, 0.36, 0.21 (mean 0.10)
* GFDLNEYGIS / VIYADGMRTAYSDNVK / GETAGTFDL [En_Gen] -> 0.44, 0.09, -0.08, 0.14, -0.01, 0.03 (mean 0.10)
* GFDLDEYGIS / VIYSDGRRTAYGDSVK / GGAAGSFNS [Ctrl] -> 1.14, 1.98, 1.64, 1.79, 1.18, 1.30 (mean 1.50)
* GFSLNEYGIS / VIYADGLRSFYQDKVK / GELALSLDT [En_Gibbs] -> ND, ND, 1.76, ND, ND, ND
* GFDLEEYGIS / VIYADGSRTSYQEKVK / GLVGGMLDV [En_Gibbs] -> ND, ND, ND, ND, 2.18, ND
* GFDLDEEGIS / VIYADGIRTAYQDSVK / GQNVATFNV [En_Gibbs] -> 1.61, 2.66, ND, 2.89, 1.99, 2.60 (mean 2.35)
* GMNIDEYGIS / VIYADGQRTHYINSVK / GEQAGIDMY [En_Gibbs] -> ND, ND, ND, 2.78, ND, ND
* GNELDEYGIS / VIYADGKRTAYSDDVK / DVGSNTLVD [En_Gibbs] -> ND, ND, ND, ND, ND, ND
* GRSLDEYGIS / VIYADGVRQAYQDSVK / GNWSGTMMY [En_Gibbs] -> ND, ND, ND, ND, ND, ND
* GFDLNEYGIS / VIYADGHRTQYSNNVK / GGQGGIGLS [En_Gibbs] -> ND, ND, ND, ND, ND, ND
* GFSLDEMGIS / VIYADGQRTMYQASVK / GQNIGNVFV [En_Gibbs] -> ND, ND, ND, ND, ND, ND
* GEDLDEYGIS / VIYADGRRVVYQDQVK / GELAGVFAQ [En_Gibbs] -> ND, ND, ND, ND, ND, ND
* GFDLGEYGIS / VIYADGRRTAYQQSVK / GLNEGMLVI [En_Gibbs] -> ND, ND, ND, ND, ND, ND
* GNTLDEYGIS / VIYADGSRMAYANKFK / GMDVGTFDQ [En_Gibbs] -> ND, ND, ND, ND, ND, ND
* GFRLNAYGIS / VIYSDGRREFLRDSVK / GQLAETFDS [Rand] -> ND, ND, ND, ND, ND, ND
* GFDINEYGIS / VIYADGMRKAYVQNVK / GENSRSVQI [En_Gibbs] -> ND, ND, ND, ND, ND, ND
* GFNINEYGIS / VIYADGQRLSYDDKVK / GDITGTFND [En_Gibbs] -> ND, ND, ND, ND, ND, ND
* GFSIDEYGIS / VIYADGNRSAYIDAVK / GNWGSDFLE [En_Gibbs] -> ND, ND, ND, ND, ND, ND
* GFQVQEYGIS / VIYADGRRTQYTDAVK / GKLNDVLFV [En_Gibbs] -> ND, ND, ND, ND, ND, ND

Top 2 of the variants detected in all replicates, tightest first:

| CDR-H1 | CDR-H2 | CDR-H3 | group | log10 Kd (nM) by replicate | log10 Kd (nM), mean |
|---|---|---|---|---|---|
| GFDLDEYGIS | VIYADGVRTAYADDVK | GNVAGTFDL | En_Gen | -0.40, -0.61, -0.57, -0.69, -0.64, -0.73 | -0.61 |
| GFDLNEYGIS | VIYADGVRTAYADSVK | GETAGTFDM | En_Gen | -0.49, -0.60, -0.75, -0.31, -0.65, -0.70 | -0.58 |